# Test results from patent US5948635A, “Totally Synthetic Affinity Reagents” (University of North Carolina at Chapel Hill, priority 1995, dated 1999).
# Biological target: CaM (Homo sapiens, UniProt P0DP23)
# Test: Competition for binding of CaM-12.1 phage to CaM
# Conditions: preliminary experiments
# Procedure: The binding properties of the CaM-12.1 TSAR were further examined in several ways. First, the ability of CaM-12.1 phage to bind other calcium-binding proteins was tested. […] Second, the ability of natural calmodulin binding peptides and proteins to compete for binding of the CaM-12.1 phage with CaM was tested. […] Third, the ability of a synthetic non-peptide CaM-antagonist, W7, (#681629; Calbiochem, San Diego, Calif.), was tested for its ability to compete for binding of CaM-12.1 to CaM. […] In summary: (1) CaM-12.1 binds CaM specifically, and not because it is a high-affinity Ca^2 +-binding protein; (2) CaM-12.1 binds CaM at a site partially overlapping or influenced, by the binding sites of CaM-dependentprotein kinase peptide, melittin and W7.
compound,measurement,value
CC[C@H](C)[C@H](NC(=O)CN)C(=O)NCC(=O)N[C@@H](C)C(=O)N[C@H](C(=O)N[C@@H](CC(C)C)C(=O)N[C@@H](CCCCN)C(=O)N[C@H](C(=O)N[C@@H](CC(C)C)C(=O)N[C@H](C(=O)N[C@H](C(=O)NCC(=O)N[C@@H](CC(C)C)C(=O)N1CCC[C@H]1C(=O)N[C@@H](C)C(=O)N[C@@H](CC(C)C)C(=O)N[C@H](C(=O)N[C@@H](CO)C(=O)N[C@@H](Cc1c[nH]c2ccccc12)C(=O)N[C@H](C(=O)N[C@@H](CCCCN)C(=O)N[C@@H](CCCNC(=N)N)C(=O)N[C@@H](CCCCN)C(=O)N[C@@H](CCCNC(=N)N)C(=O)N[C@@H](CCC(N)=O)C(=O)N[C@@H](CCC(N)=O)C(N)=O)[C@@H](C)CC)[C@@H](C)CC)[C@@H](C)O)[C@@H](C)O)C(C)C)C(C)C [melittin],competition with CaM-12.1 for binding to CaM,could compete
